Antibody variant affinities, Ab-14 heavy chain, assay B

The measurements come from Li et al. 2023 (doi:10.1038/s41467-023-39022-2) through the FLAb antibody collection.

Target peptide (SARS-CoV-2 spike, HR2 region): PDVDLGDISGINAS

Each scFv is VH, a 15-residue (Gly4Ser)3 linker, VL, as in the parent Ab-14, and differs from it in the CDRs of the heavy chain only.
VH: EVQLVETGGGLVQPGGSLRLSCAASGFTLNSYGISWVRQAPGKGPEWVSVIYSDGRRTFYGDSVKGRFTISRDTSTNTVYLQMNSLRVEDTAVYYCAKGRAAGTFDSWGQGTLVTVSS
VL: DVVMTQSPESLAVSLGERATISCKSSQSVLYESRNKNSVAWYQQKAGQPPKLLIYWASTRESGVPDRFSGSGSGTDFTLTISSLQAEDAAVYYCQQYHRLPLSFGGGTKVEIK

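Designed CDR sequences, proposed from the first random library and measured here. Group labels follow the data file (Ctrl: baseline library sampled from a position-specific scoring matrix, with some repeated check sequences; GPLM: also part of the Gaussian process libraries; Gen: genetic algorithm; a sequence that several methods proposed may carry one label only). AlphaSeq pools MATa yeast showing the antibodies with MATalpha yeast showing the peptide. After mating in shaken culture at 30 °C for 16 h, diploids were selected and their barcode pairs sequenced. The ratio of observed to expected reads was calibrated, replicate by replicate, on BCL2-family standards whose Kd was known from biolayer interferometry. The assay was run in six technical replicates.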

Variants are written as CDR1, CDR2 and CDR3 of the heavy chain (limits as in the source). Parent: GFTLNSYGIS, VIYSDGRRTFYGDSVK, GRAAGTFDS.
Scale: log10 of Kd in nM, estimated from mating counts; low values are strong binders.
Replicates are averaged; those with no signal do not enter the mean.
"nd" marks a missing value. The strain was present, yet no cells mated with the target were sequenced in that replicate, which points to weak or no binding.

CDR-H1,CDR-H2,CDR-H3,group,log10 Kd (nM) by replicate,"mean, log10 nM",control signals
GFTLNEYGIS,VIYSDGLRTFYTDSVK,GRAQGTFDS,Ctrl,0.62 / nd / nd / nd / nd / nd,0.62,0 of 18
GFSLNSYGIS,VIYSDGLRTSYGDSVK,QRAAGTFDS,Ctrl,nd / nd / nd / nd / 3.20 / nd,3.20,0 of 18
GFTLNSYGIS,VIYSDGIRTFYIDSVK,GEAAGTFNS,Ctrl,1.24 / 2.66 / nd / nd / 1.98 / 1.84,1.93,0 of 18
GFDLNDYGIS,VIYSDGRRTFYGDSVK,GRAAGTFES,Ctrl,0.30 / 0.30 / 1.63 / 0.54 / 0.45 / 0.19,0.57,0 of 18
GFTLNSQGIS,VIYSDGRRTFYGDKVK,GRAAGTFDS,Ctrl,nd / nd / nd / nd / nd / nd,nd,0 of 18
GFTLNSYGIS,VIYADGRRTFYGDSVK,GRAAATFDS,Ctrl,nd / nd / nd / nd / nd / nd,nd,1 of 18 (0.97)
GFSLNSYGIS,VIYSDGRRQFYTDSVK,GRAAGTFDS,Ctrl,1.49 / 1.13 / 1.41 / 1.33 / 1.52 / 1.20,1.34,0 of 18
GFTLNSYGIS,VIYSDGRRQFYGDSVK,GRAAGTFDS,Ctrl,nd / nd / nd / nd / nd / nd,nd,0 of 18
GFTLNSYGIS,VIYSDGRRTFYGDSVK,GRKAGTFNS,Ctrl,nd / nd / nd / nd / nd / nd,nd,1 of 18 (2.06)
GFTLNSYGIS,VIYDDGRRTFYGDSVK,GRAAGTFSS,Ctrl,nd / nd / nd / nd / nd / nd,nd,0 of 18
GFTLNSYGIS,VIYSDGRRTFYSDSVK,GRAAGEFRS,Ctrl,nd / nd / nd / nd / nd / 2.62,2.62,1 of 18 (4.03)
GFTLNDYGIS,VIYSDGRRTFYSDSVV,GRAGGTFDS,Ctrl,1.50 / 1.09 / 0.92 / 0.68 / 1.62 / 1.46,1.21,0 of 18
GFTLNSYGIS,VIYSDGRRTFYGDSVK,GRAAGTFSD,Ctrl,nd / nd / nd / nd / nd / nd,nd,0 of 18
GFTLNSYGIS,VIYSDGMRTSYGDSVK,GREAGTFDS,Ctrl,nd / nd / nd / nd / nd / nd,nd,0 of 18
GFTLNSYGIS,VIYSDGLRTFYQDSVK,GRAAGTFDS,Ctrl,nd / nd / 1.34 / 1.78 / 1.59 / 2.22,1.73,0 of 18
GFTLNQYGIT,VIYSDGYRTFYGDSVK,GRATGTFDS,Ctrl,nd / nd / nd / nd / nd / nd,nd,1 of 18 (1.11)
GFTVNSYGIS,VIYSDGRRTFYGDSVK,VRAGGSFSC,Ctrl,nd / nd / nd / nd / nd / nd,nd,0 of 18
GFTLNEYGIS,VIYRDGRRTMYGDSVK,GRAAGNFDS,Ctrl,nd / nd / nd / nd / nd / nd,nd,0 of 18
GFTLNDYGIS,VIYSDGRRTFYTDSVK,GRAAGTFDS,Ctrl+GPLM_Gen,0.72 / 0.88 / -0.46 / nd / nd / nd; 0.60 / -0.11 / -0.09 / 0.28 / 0.58 / -0.33,0.23,0 of 36
GFNLNSFGIS,VIYSDGARTFYGDSVK,GRAAGTFDS,Ctrl,nd / nd / nd / nd / nd / nd,nd,0 of 18
GFTVADYGIS,VIYSDGRKTFYIDSVK,GRVIGTFDS,Ctrl,nd / nd / nd / nd / nd / nd,nd,0 of 18
TFTNNSYGIS,VIYSDGRRTFYGDSVK,GRAMGTFVS,Ctrl,nd / nd / nd / nd / nd / nd,nd,0 of 18
GFTLNSYGIS,VIYSDGMRTFYLGSVK,GRAAGTFLS,Ctrl,nd / nd / nd / nd / nd / nd,nd,0 of 18
GFTLELYGIS,VIYSDGRRTFYSDSVK,GRAAGRFDS,Ctrl,2.77 / 1.78 / nd / nd / nd / 1.56,2.04,1 of 18 (1.26)
GFPLNSYGIS,VIYSDGRRTFYGDEVK,GRFAGTFDY,Ctrl,nd / nd / nd / nd / 0.76 / nd,0.76,0 of 18
GFTLNSYGIS,VIYSDGRRTFYTDSVK,GKQTGTFDS,Ctrl,nd / nd / nd / nd / nd / nd,nd,0 of 18
GFDLNSYGIS,VIYADGRRTFYGDFVK,GRAAGTFDS,Ctrl,0.53 / 0.25 / 0.07 / -0.19 / 0.03 / 0.15,0.14,0 of 18
GFNLNSYGIS,VIYADGRRTFYGDSVK,GRAAITFDS,Ctrl,1.26 / 0.95 / 0.40 / 0.39 / 0.37 / 1.02,0.73,0 of 18
GFTLNSYGIS,VIYSDGRRTFYGDSVK,GRVAGTFDA,Ctrl,0.67 / 0.10 / 0.21 / 0.52 / 0.40 / 0.48,0.40,2 of 18 (2.40)
GFALNSYGIS,VIYSDGRRTFYGDSVK,GRAAGTFHS,Ctrl,nd / nd / nd / nd / nd / nd,nd,0 of 18

The first 4 variants above that were never detected:

CDR-H1,CDR-H2,CDR-H3,group,log10 Kd (nM) by replicate,"mean, log10 nM",control signals
GFTLNSQGIS,VIYSDGRRTFYGDKVK,GRAAGTFDS,Ctrl,nd / nd / nd / nd / nd / nd,nd,0 of 18
GFTLNSYGIS,VIYADGRRTFYGDSVK,GRAAATFDS,Ctrl,nd / nd / nd / nd / nd / nd,nd,1 of 18 (0.97)
GFTLNSYGIS,VIYSDGRRQFYGDSVK,GRAAGTFDS,Ctrl,nd / nd / nd / nd / nd / nd,nd,0 of 18
GFTLNSYGIS,VIYSDGRRTFYGDSVK,GRKAGTFNS,Ctrl,nd / nd / nd / nd / nd / nd,nd,1 of 18 (2.06)

Some sequences occur more than once in the pool; their replicates are listed entry by entry, parted by semicolons.
As a blank, each scFv also met three strains without target: over all heavy chain designs, 1% of these pairings were detected, typically at 2.08 and seldom below 0.84. Also given: how often the same scFv was detected with the empty control strains, with their mean in brackets.
Values of this round are not directly comparable with the first-round values of the same sequences.
The authors averaged sequences with at least three values out of six and counted those with two or fewer as poor binders.
Of ten entries with the parent sequence, four were seen in most replicates (averages 0.34 to 2.37), three in one and three in none, so single entries are noisy.